Molecules are shown by their SMILES. The list shows a part of the results, in another mix than the full data. The source made the active and inactive calls. Calls come from the whole dose curve; as a rule, active = well fitted inhibition curve with a large enough effect; inconclusive = small, poorly fitted or top-dose-only effect; inactive = flat fitted curve, though single readings scatter.

Amino acid sequences for entries named in this document (tags omitted).
UniProt P54132, whole entry: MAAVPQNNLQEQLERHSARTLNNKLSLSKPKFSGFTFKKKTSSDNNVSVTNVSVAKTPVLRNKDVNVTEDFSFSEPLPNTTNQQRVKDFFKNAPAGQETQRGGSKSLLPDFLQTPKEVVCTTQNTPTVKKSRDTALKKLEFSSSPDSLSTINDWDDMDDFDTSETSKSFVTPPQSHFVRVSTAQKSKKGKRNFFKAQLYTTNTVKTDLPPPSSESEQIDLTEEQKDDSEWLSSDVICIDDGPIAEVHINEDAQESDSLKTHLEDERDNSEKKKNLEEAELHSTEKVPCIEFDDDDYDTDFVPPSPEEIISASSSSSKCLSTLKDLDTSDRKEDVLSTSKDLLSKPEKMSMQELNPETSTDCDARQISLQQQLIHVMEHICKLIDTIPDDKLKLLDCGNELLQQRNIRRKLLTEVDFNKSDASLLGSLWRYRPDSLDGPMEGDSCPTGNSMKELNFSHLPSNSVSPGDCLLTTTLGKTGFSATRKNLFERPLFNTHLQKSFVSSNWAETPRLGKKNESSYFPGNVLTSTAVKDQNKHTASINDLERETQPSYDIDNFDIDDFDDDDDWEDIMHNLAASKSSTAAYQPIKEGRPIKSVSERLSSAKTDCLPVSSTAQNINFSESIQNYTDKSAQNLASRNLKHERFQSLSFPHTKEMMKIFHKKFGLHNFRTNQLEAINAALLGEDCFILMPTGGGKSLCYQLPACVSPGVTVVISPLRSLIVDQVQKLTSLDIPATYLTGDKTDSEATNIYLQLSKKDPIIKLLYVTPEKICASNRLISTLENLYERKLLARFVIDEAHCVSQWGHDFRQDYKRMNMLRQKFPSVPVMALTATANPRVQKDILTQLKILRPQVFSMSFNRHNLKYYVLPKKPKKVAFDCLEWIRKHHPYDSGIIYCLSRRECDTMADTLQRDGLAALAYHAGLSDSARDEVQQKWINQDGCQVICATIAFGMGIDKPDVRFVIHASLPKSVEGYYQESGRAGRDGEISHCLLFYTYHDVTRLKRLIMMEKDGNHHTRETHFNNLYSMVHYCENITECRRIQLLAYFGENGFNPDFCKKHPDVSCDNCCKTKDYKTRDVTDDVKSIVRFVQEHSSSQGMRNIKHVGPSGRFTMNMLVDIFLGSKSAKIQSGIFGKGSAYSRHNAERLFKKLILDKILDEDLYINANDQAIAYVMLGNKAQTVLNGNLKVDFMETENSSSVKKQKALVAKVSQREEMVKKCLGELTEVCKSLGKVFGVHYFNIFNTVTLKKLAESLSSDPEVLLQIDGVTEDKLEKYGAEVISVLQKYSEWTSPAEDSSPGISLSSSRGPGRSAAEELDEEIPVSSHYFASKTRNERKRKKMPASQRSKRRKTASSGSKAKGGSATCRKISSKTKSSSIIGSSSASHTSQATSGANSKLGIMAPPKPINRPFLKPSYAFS

For this test, the target named is RecQ-like DNA helicase BLM (Homo sapiens) (UniProt P54132). As to the kind of experiment: qHTS Assay for Inhibitors of Bloom's syndrome helicase (BLM).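 Note: plate controls were vehicle for no effect and no enzyme for full effect; nearly all actives have a fitted effect of over 35% in size.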 As to conditions: recombinant BLM DNA unwinding, fluorescence dequenching; at 56.1 µM (top of the series) unless noted.
On to `CC(C)OP(=O)(F)OC(C)C`, for which the activity change, negative = inhibition is inactive: 0.856%. In the case of `C/C1=C2N=C(/C=C3N=C(/C(C)=C4\[N-][C@@](C)([C@H]5N=C1[C@@](C)(CCC(=O)NC[C@H](C)OP(=O)([O-])O[C@@H]1[C@H](O)[C@H](n6cnc7cc(C)c(C)cc76)O[C@@H]1CO)[C@@H]5CC(N)=O)[C@](C)(CC(N)=O)[C@H]4CCC(N)=O)[C@@](C)(CC(N)=O)[C@@H]\3CCC(N)=O)C(C)(C)[C@@H]/2CCC(N)=O.[C-]#N.[Co+3]` it was inactive: -7.6% [at 21.4 µM]; in that of `CCOC(=O)c1ccc(NP(C)(=O)Oc2ccc(Cl)cc2)cc1` (stereo not given), inactive: -3.31%.

For `CP(=O)(OC12CC3CC(CC(C3)C1)C2)OC12CC3CC(CC(C3)C1)C2`, the activity change, negative = inhibition was inactive: -1.76%. Then `CC(C)(C)c1ccc(OP(C)(=O)O)cc1`, with inactive: -1.55%; and `COc1ccccc1OP(C)(=O)Nc1ccccc1Br` (stereo not given), with inactive: -2.44%. In the case of `CP(=O)(Nc1ccc(Cl)cc1)Oc1ccc(F)cc1` (stereo not given) it was inactive: -2.46%; in that of `CN(C)C(=O)c1c([N+](=O)[O-])cc([N+](=O)[O-])cc1[N+](=O)[O-]`, inactive: -4.98%; in that of `COc1ccc(OP(C)(=O)Nc2ccc(Br)cc2)cc1` (stereo not given), inactive: -1.72%. Then `CCN(CC)CC(O)COC(=O)C(O)(c1ccccc1)C1CCCCC1` (stereo not given), with inactive: 2.84%; and `OCCSCCO`, with inactive: -7.32%; and `O=C(OCCCN1CCCC1)C(O)(c1ccccc1)C1CCCCC1` (stereo not given), with inactive: 2.45%.

For `COc1ccccc1OP(C)(=O)Nc1c(C)n(C)n(-c2ccccc2)c1=O` (stereo not given), the activity change, negative = inhibition was inactive: -1.23%.

With `CCc1ccc(OP(C)(=O)Nc2cccnc2)cc1` (stereo not given), the activity change, negative = inhibition is inactive: 1.27%. For the compound `CP(=O)(Oc1ccccc1)N1CCOC1=O` (stereo not given), the activity change, negative = inhibition was inactive: -0.242%.

With `O=[N+]([O-])c1cc([N+](=O)[O-])c(Nc2ccccn2)c([N+](=O)[O-])c1`, the activity change, negative = inhibition was inactive: 4.08%. Then `Cc1c(NP(C)(=O)Oc2ccc(C(C)C)cc2)c(=O)n(-c2ccccc2)n1C` (stereo not given), with inactive: -1.26%; and `COc1ccccc1OP(C)(=O)Nc1ccc(C)cc1C` (stereo not given), with inactive: 0.557%.

Turning to `CP(=O)(Nc1ccccn1)Oc1ccccc1` (stereo not given), the activity change, negative = inhibition was inactive: 1.03%. Then `CCc1ccc(OP(C)(=O)O)cc1`, with inactive: -0.0184%. Then `COc1ccccc1OP(C)(=O)Nc1ccc(Br)cc1` (stereo not given), with inactive: -2.98%. Turning to `COc1ccc(OP(C)(=O)Nc2ccccn2)cc1` (stereo not given), the activity change, negative = inhibition is inactive: -3.92%. Then `CN(C)CCOC(=O)C(O)(c1ccccc1)C1CCCC1` (stereo not given), with inactive: 1.86%; and `Cc1nc2ccc3ccccc3c2o1.O=[N+]([O-])c1cc([N+](=O)[O-])c(O)c([N+](=O)[O-])c1`, with inactive: -24.1%; and `CP(=O)(OCCOc1ccccc1)OCCOc1ccccc1`, with inactive: -5.48%. In the case of `CP(=O)(Nc1ccc(Cl)cc1Cl)Oc1ccccc1` (stereo not given) it was inactive: -1.9%; in that of `Cc1cc(C)cc(OP(C)(=O)Nc2cccc(C(F)(F)F)c2)c1` (stereo not given), inactive: -12.5%. In the case of `COc1ccccc1OP(C)(=O)Nc1ccc(C)c(C)c1` (stereo not given) it was inactive: -4.75%; in that of `COc1ccc(OP(C)(=O)Nc2ccccc2Br)cc1` (stereo not given), inactive: -1.85%; in that of `CCN(CC)CCCOC(=O)C(O)(c1ccccc1)C1CCCCC1` (stereo not given), inactive: 1.53%. Turning to `CP(=O)(Nc1ccccc1)Oc1ccc(F)cc1` (stereo not given), the activity change, negative = inhibition is inactive: -0.764%. Then `CCCCCOc1ccc(NP(C)(=O)Oc2ccc(Cl)cc2Cl)cc1` (stereo not given), with inactive: -15.4%. Then `CCOC(=O)c1ccc(NP(C)(=O)Oc2ccc(F)cc2)cc1` (stereo not given), with inactive: 2.15%; and `COc1ccc(OP(C)(=O)Nc2ccc(SC(F)(F)F)cc2)cc1` (stereo not given), with inactive: -7.65%; and `O=C(OCCN1CCN(CCOCc2ccccc2)CC1)C(O)(c1ccccc1)c1ccccc1`, with inactive: -1.53%. In the case of `CP(=O)(Nc1ccccc1F)Oc1ccccc1` (stereo not given) it was inactive: -11.8%; in that of `CC(C)c1ccc(OP(C)(=O)Nc2ccc(SC(F)(F)F)cc2)cc1` (stereo not given), inactive: -17.8%; in that of `CP(=O)(Nc1ccc2c(c1)OCCO2)Oc1ccccc1` (stereo not given), inactive: -0.504%. For `CCN(CCCl)Cc1ccccc1C`, the activity change, negative = inhibition was inactive: 5.31%. Then `Cc1ccccc1NP(C)(=O)Nc1ccccc1C`, with inactive: -0.939%. Then `CP(=O)(Nc1ccc(SC(F)(F)F)cc1)Oc1ccc(F)cc1` (stereo not given), with inactive: -3.68%; and `CCOP(C)(=S)SCC(=O)NC(C)(CC)C(=O)O` (stereo not given), with inactive: 4.32%; and `O=[N+]([O-])c1ccc(OP2(=O)COCCO2)cc1` (stereo not given), with inactive: 1.42%.

On to `Cc1cc(-c2cccc3ccccc23)c(C)cn1.O=[N+]([O-])c1cc([N+](=O)[O-])c(O)c([N+](=O)[O-])c1`, for which the activity change, negative = inhibition is inactive: -4.81%.

In the case of `COc1ccc(OP(C)(=O)Nc2cccc(Br)c2)cc1` (stereo not given), the activity change, negative = inhibition is inactive: -0.829%. In the case of `CN(C)CCOC(=O)C(O)(c1ccccc1)C1CCCCC1` (stereo not given) it was inactive: 3.9%; in that of `COc1ccc(NP(C)(=O)Oc2ccccc2OC)cc1` (stereo not given), inactive: -1%. On to `COc1ccccc1OP(C)(=O)Nc1c(C)cccc1C` (stereo not given), for which the activity change, negative = inhibition was inactive: -1.44%. In the case of `CN1CCCCC1COC(=O)C1(O)c2ccccc2CCc2ccccc21` (stereo not given) it was inactive: -10.6%; in that of `CP(=O)(Nc1ccc(SC(F)(F)F)cc1)Oc1ccccc1` (stereo not given), inactive: -4.23%.

For `CCCOc1ccc(NP(C)(=O)Oc2ccc(Cl)cc2)cc1` (stereo not given), the activity change, negative = inhibition is inactive: -3.17%.

Consider `O=[N+]([O-])c1cc([N+](=O)[O-])c(Nc2nnnn2CCO)c([N+](=O)[O-])c1`, for which the activity change, negative = inhibition is inactive: -3.76%. As to `Cc1nc2ccc3ccccc3c2s1.O=[N+]([O-])c1cc([N+](=O)[O-])c(O)c([N+](=O)[O-])c1`, the activity change, negative = inhibition is inactive: 1.6%. Then `O=[N+]([O-])c1cc([N+](=O)[O-])c(-n2nnc3ccccc32)c([N+](=O)[O-])c1`, with inactive: -1.05%; and `CC(C)N(CCCl)C(C)C`, with inactive: 1.44%. Then `Cc1ccc(C)c(NP(C)(=O)Oc2ccccc2)c1` (stereo not given), with inactive: 1.27%. In the case of `CP(=O)(Nc1cccc(Br)c1)Oc1ccccc1` (stereo not given) it was inactive: -0.148%; in that of `Cc1cc(C)cc(OP(C)(=O)Nc2ccccn2)c1` (stereo not given), inactive: -1.47%; in that of `COc1ccccc1OP(C)(=O)Nc1cccc(Br)c1` (stereo not given), inactive: -1.47%.

With `CCOC(=O)c1ccc(NP(C)(=O)Oc2cc(C)cc(C)c2)cc1` (stereo not given), the activity change, negative = inhibition is inactive: -5.44%. Then `Cc1cc(C)cc(OP(C)(=O)Nc2ccc(C)cc2C)c1` (stereo not given), with inactive: -0.756%. For the compound `CC1=NCCc2c1[nH]c1ccccc21.O=[N+]([O-])c1cc([N+](=O)[O-])c(O)c([N+](=O)[O-])c1`, the activity change, negative = inhibition is inactive: 4.08%. Then `O=[N+]([O-])OCC(CO[N+](=O)[O-])(CO[N+](=O)[O-])CO[N+](=O)[O-]`, with inactive: 7.52%. In the case of `O=[N+]([O-])c1cccc([N+](=O)[O-])c1` it was inactive: 2.12%; in that of `Cc1ccc(NP(C)(=O)Oc2ccccc2)c(C)c1` (stereo not given), inactive: 2.13%. Consider `COc1ccccc1OP(C)(=O)Nc1ccc(C)cc1` (stereo not given), for which the activity change, negative = inhibition is inactive: -0.744%. Regarding `CCOC(=O)c1ccc(NP(C)(=O)Oc2ccccc2)cc1` (stereo not given), the activity change, negative = inhibition was inactive: 4.11%. Regarding `Cc1cc(C)cc(OP(C)(N)=O)c1` (stereo not given), the activity change, negative = inhibition was inactive: -5.62%. Then `COc1ccc(OP(C)(=O)Nc2cccc(F)c2)cc1` (stereo not given), with inactive: -1.86%.

Turning to `COc1ccccc1OP(C)(=O)Nc1cc(Cl)ccc1C` (stereo not given), the activity change, negative = inhibition is inactive: -3.78%. In the case of `O=C(O)C1(O)c2ccccc2-c2ccccc21`, the activity change, negative = inhibition was inactive: -12.2%. In the case of `O=[N+]([O-])c1ccc2c(c1)C=Nc1ccccc1O2` it was inactive: -5.35%.

For the compound `O=C(O)C(O)(c1ccccc1)c1ccccc1`, the activity change, negative = inhibition is inactive: 5.7%. Then `Cc1cccc(C)c1OP(C)(N)=O` (stereo not given), with inactive: -4.29%. In the case of `CC(C)(C)c1ccc(OP(C)(=O)Nc2ccc(SC(F)(F)F)cc2)cc1` (stereo not given) it was inactive: -13.1%. In the case of `O=[N+]([O-])[O-].[NH4+]` it was inactive: -5.2%; in that of `CCN(CC)CCCOC(=O)C(O)(c1ccccc1)c1ccccc1`, inactive: 0.0177%; in that of `CN(C)CCS`, inactive: 2.56%. Take `CCOC(=O)c1ccc(NP(C)(=O)Oc2ccc(OC)cc2)cc1` (stereo not given): the activity change, negative = inhibition was inactive: 1.66%. Then `CCOP(C)(=S)SCC(=O)NC(C)C(=O)O` (stereo not given), with inactive: 0.0093%; and `CP(=O)(Nc1ccccn1)Oc1ccc(Cl)cc1` (stereo not given), with inactive: 0.544%. Then `CP(=O)(Oc1ccccc1)OC(c1ccccc1)C(F)(F)F` (stereo not given), with inactive: -2.3%. In the case of `Cc1cccc(C)c1OP(C)(=O)Nc1ccc(SC(F)(F)F)cc1` (stereo not given) it was inactive: -5.48%. Take `CP(=O)(Nc1ccc(SC(F)(F)F)cc1)Oc1ccc(Cl)cc1` (stereo not given): the activity change, negative = inhibition was inactive: -10.2%. As for `Cc1cc(C)cc(OP(C)(=O)Nc2ccc(SC(F)(F)F)cc2)c1` (stereo not given), the activity change, negative = inhibition was inactive: -13.4%.

`CCc1ccc(OP(C)(=O)N2CCN(c3ccc([N+](=O)[O-])cc3)CC2)cc1` (stereo not given): the activity change, negative = inhibition is inactive: -5.19%.

As to `CP(=O)(NC(=O)Nc1ccccc1)Oc1ccccc1` (stereo not given), the activity change, negative = inhibition is inactive: -2.17%. Then `CP(=S)(Nn1cnnc1)Oc1ccccc1` (stereo not given), with inactive: -1.99%; and `CP(=O)(Nc1ccccc1Br)Oc1ccccc1` (stereo not given), with inactive: 1.9%. Then `COc1ccccc1OP(C)(=O)Nc1ccccc1` (stereo not given), with inactive: -0.947%.

The values above are taken from PubChem BioAssay AID2528 (National Center for Advancing Translational Sciences (NCATS), 2010).
